The values that follow are results of earlier work, collected in paper PMC7180456, “Multitarget Anticancer Agents Based on Histone Deacetylase and Protein Kinase CK2 Inhibitors” (Molecules, 2020).

Molecules are shown by their SMILES.

In this series the test system is CK2. As to conditions: Figure 1; read-out: IC50 of representative CK2 inhibitors; cited from earlier work.

In the case of `CN(C)c1nc2c(Br)c(Br)c(Br)c(Br)c2[nH]1` [DMAT, 2-dimethylamino-4,5,6,7-tetrabromo-1H-benzimidazole], the half-inhibitory concentration (IC50) was 140 nM.

Usually IC50 stands for the concentration that inhibits the measured activity by half.
